The results in this text go back to PubChem BioAssay AID686940 (The Scripps Research Institute Molecular Screening Center, 2013).

Protein sequences, listed by entry. Tags and fused reporters are not part of them.
UniProt P24468, whole entry: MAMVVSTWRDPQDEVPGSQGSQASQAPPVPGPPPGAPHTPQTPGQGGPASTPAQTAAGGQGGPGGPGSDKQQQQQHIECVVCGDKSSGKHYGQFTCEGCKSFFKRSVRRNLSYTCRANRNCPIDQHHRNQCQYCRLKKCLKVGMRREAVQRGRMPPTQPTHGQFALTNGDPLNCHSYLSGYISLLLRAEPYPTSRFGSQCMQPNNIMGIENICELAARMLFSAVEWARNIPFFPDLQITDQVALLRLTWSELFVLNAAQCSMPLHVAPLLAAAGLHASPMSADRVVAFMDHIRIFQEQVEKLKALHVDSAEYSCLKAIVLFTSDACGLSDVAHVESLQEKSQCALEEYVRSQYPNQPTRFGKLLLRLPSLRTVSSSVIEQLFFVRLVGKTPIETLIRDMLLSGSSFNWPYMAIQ

The list shows a part of the results, in another mix than the full data. The source made the active and inactive calls.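 The calls were made as follows: active = inhibition above a per-plate cutoff, mean inhibition of test wells between control levels plus 3 SD (cut at about 38% in these data); inactive = the rest.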

The term inhibition denotes the drop in the measured response relative to a control, in per cent.

In this test the target is COUP transcription factor 2 (Homo sapiens) (UniProt P24468). The test can be described thus: NR2F2 transcriptional activity inhibitors, primary screen, cell-based, luciferase reporter, HEK293T, luminescence (AID 686940).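 Also: cells cotransfected with COUP-TFII expression vector driving the NGFI-A reporter; 0% = median of COUP-TF2 test wells and 100% = reporter-only cells.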 The conditions noted are these: HEK293T NGFI-A luciferase reporter, at 8.6 µM, active compounds read high.
Take `CC(C)(C)OC(=O)N1CCC(N(C(=O)c2ccccc2)c2ccc(Cl)cc2)CC1`: the inhibition is inactive: 19.1%.
Consider `N#Cc1ccc(C(=O)NCC2(N3CCCCC3)CCCCC2)cc1`, for which the inhibition was inactive: 16%.
Regarding `CCCN1CCC(Nc2cc(OC)cc(OC)c2)CC1`, the inhibition was inactive: -11.2%.
As for `O=c1[nH]c2ccccc2n1C1CCN(C(c2ccccc2)c2nnnn2C2CCCC2)CC1` (stereo unspecified), the inhibition is inactive: 0.52%.
The value for `Cc1cc(N(CCCl)CCCl)ccc1C=O` was inactive: -12.2%; that for `c1ccc(CN2CCC(Nc3ccccc3)CC2)cc1` was inactive: 0.9%; that for `C/C(N)=N\P(=O)(Oc1ccccc1)Oc1ccccc1` was inactive: 0.51%.
`CN(C)C1(CNC(=O)c2cccc(C#N)c2)CCCCC1`: the inhibition is inactive: -0.36%.
The figure for `CC(C)(C)n1nnnc1C(c1cccc2ccccc12)N1CCC(n2c(=O)[nH]c3ccccc32)CC1` (stereo unspecified) is inactive: -9.99%.
Consider `O=C(NCC1(N2CCOCC2)CCCCC1)c1cc(Br)ccc1Cl`, for which the inhibition was inactive: -2.52%.
Regarding `COc1cc(C(=O)NCC2(N3CCOCC3)CCCCC2)cc(OC)c1C`, the inhibition is inactive: -17.9%.
With `CCCCn1nnnc1C(c1ccccc1)N1CCC(n2c(=O)[nH]c3ccccc32)CC1` (stereo unspecified), the inhibition was inactive: -5.42%.
The value for `O=c1[nH]c2ccccc2n1C1CCN(C(c2ccnc3ccccc23)c2nnnn2C2CCCC2)CC1` (stereo unspecified) was inactive: 6.08%; that for `COc1ccc(C(=O)NCC2(N3CCOCC3)CCCCC2)cc1OC` was inactive: -0.65%; that for `NC(=O)C1(Nc2ccccc2)CCN(Cc2ccccc2)CC1` was inactive: 0.35%.
The value for `O=c1[nH]c2ccccc2n1C1CCN(C(c2cccs2)c2nnnn2C2CCCCC2)CC1` (stereo unspecified) was inactive: 17%; that for `N/C(=N\O)c1c(N)no[n+]1[O-]` was inactive: 9.71%; that for `COc1cccc(C(c2nnnn2C(C)(C)C)N2CCC(n3c(=O)[nH]c4ccccc43)CC2)c1OC` (stereo unspecified) was inactive: 11.3%.
With `CCOC(=O)N1CCC(Nc2ccc(C)cc2)CC1`, the inhibition was inactive: 6.94%.
The figure for `CCCCn1nnnc1C(c1cccc(OC)c1OC)N1CCC(n2c(=O)[nH]c3ccccc32)CC1` (stereo unspecified) is inactive: 20.1%; for `O=c1[nH]c2ccccc2n1C1CCN(C(c2cccs2)c2nnnn2C2CCCC2)CC1` (stereo unspecified) it is inactive: -5.55%.
In the case of `O=C(OC1CN2CCC1CC2)C1c2ccccc2C=Cc2ccccc21` (stereo unspecified), the inhibition is inactive: 1.63%.
Regarding `CN(C)c1cccc(C(=O)NCC2(N3CCCCC3)CCCCC2)c1`, the inhibition was inactive: 8.33%.
In the case of `COC(=O)C1(Nc2ccccc2)CCN(Cc2ccccc2)CC1`, the inhibition is inactive: -14.5%.
On to `COc1ccc(CN(CCCl)CCCl)cc1Cl`, for which the inhibition was inactive: -4.36%.
On to `CC(C)c1ccc(NC2CCN(C(=O)OC(C)(C)C)CC2)cc1`, for which the inhibition was inactive: -30.3%.
